From patent publication US20250009702A1 (SICHUAN JIUZHANG BIOLOGICAL SCIENCE AND TECHNOLOGY CO., LTD., priority 2021, published 2025) come the findings set out here.

The subject of the data set is DLBCL in the brain (DLBCL Ly8 cell lines). The data set is described as follows: In vivo treatment of DLBCL in the brain (Ly8 transplanted tumor model). As to conditions: group later given i.p. 3 mg/kg once every two days.

For `CN(Cc1cnc2nc(N)nc(N)c2n1)c1ccc(C(=O)N[C@@H](CCC(=O)O)C(=O)O)cc1` [methotrexate], the “Weight (g) Before treatment” value was found to be 18.93 ± 0.87 g.
